Assay: Aqueous solubility of the dyes
Assay type: physicochemical
Conditions: pH 9.5, 20° C.
Procedure: The weight % solubility of Dye (A), Dye (B) and the individual sodium and lithium salts of Dyes (A) and (B) in water at a pH of 9.5 and a temperature of 20° C. were measured.

Solubility (wt % in water at pH 9.5): 11 wt %
SMILES: COc1cc(N=Nc2cccc(S(=O)(=O)O)c2)ccc1NC(=O)Nc1ccc(N=Nc2cccc(S(=O)(=O)O)c2)cc1OC [Comparative (3), C.I. Direct Yellow 132]

From patent US6395885B1, “Use of lithium salts of anionic dyes to enhance their light-fastness” (Avecia Limited, priority 1998, dated 2002)
